Laboratory results from ChEMBL document CHEMBL1155439, “Transient receptor potential ankyrin 1 (TRPA1) channel as emerging target for novel analgesics and anti-inflammatory agents” (J Med Chem, 2010).

Amino acid sequences for entries named in this document (tags omitted).
UniProt Q6RI86, whole entry, looked up: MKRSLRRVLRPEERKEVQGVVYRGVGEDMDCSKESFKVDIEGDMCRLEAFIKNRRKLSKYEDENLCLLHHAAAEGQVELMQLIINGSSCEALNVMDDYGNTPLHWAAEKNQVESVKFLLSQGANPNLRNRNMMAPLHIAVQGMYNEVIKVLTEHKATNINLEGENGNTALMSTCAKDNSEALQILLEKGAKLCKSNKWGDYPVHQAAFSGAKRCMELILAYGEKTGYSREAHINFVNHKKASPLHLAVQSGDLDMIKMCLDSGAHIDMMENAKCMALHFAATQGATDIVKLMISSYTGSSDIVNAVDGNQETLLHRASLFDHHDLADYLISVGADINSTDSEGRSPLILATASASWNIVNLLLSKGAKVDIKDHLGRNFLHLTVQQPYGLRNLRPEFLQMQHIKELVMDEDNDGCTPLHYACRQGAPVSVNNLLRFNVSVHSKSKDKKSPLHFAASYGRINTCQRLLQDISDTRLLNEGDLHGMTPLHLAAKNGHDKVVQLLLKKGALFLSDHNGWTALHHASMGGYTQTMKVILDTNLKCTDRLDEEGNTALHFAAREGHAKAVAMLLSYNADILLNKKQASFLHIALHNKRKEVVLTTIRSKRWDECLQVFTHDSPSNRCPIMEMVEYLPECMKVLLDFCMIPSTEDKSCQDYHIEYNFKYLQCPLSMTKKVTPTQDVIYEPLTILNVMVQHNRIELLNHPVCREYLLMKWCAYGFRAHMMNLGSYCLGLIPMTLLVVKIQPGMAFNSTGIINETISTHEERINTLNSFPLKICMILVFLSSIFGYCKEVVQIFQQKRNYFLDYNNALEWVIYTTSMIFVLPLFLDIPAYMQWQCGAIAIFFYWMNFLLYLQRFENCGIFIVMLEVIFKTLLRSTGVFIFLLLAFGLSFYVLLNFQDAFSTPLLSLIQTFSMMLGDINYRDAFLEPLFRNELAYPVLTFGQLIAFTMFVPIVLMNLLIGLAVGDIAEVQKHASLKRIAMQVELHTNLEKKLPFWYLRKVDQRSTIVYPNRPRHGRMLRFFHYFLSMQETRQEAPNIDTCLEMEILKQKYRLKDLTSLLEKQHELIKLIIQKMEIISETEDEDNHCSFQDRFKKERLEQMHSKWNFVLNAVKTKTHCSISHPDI

Legend:
[1] = target: Transient receptor potential cation channel subfamily A member 1 (Rattus norvegicus) (UniProt Q6RI86); assay: Agonist activity at TRPA1 channel in rat DRG neurons assessed as increase in intracellular calcium influx relative to allyl isothiocyanate
[2] = target: Transient receptor potential cation channel subfamily A member 1 (Rattus norvegicus) (UniProt Q6RI86); assay: Agonist activity at TRPA1 channel in rat DRG neurons assessed as increase in intracellular calcium influx relative to URB597

## O=C(NC(Sc1ccc(Cl)cc1)C(Cl)(Cl)Cl)c1ccccc1 (centres undefined)
[1]
  Emax: 50%

## COc1ccc(C(=O)NC(Sc2ccc(Cl)cc2)C(Cl)(Cl)Cl)cc1 (centres undefined)
[1]
  Emax: 35%

## Cc1ccc(C(=O)NC(Sc2ccc([N+](=O)[O-])cc2)C(Cl)(Cl)Cl)cc1 (centres undefined)
[1]
  Emax: 84%
[2]
  Emax: 91%
